# Test results published in US9944954B2, “Glycerol 3-phosphate dehydrogenase for butanol production” (BUTAMAX ADVANCED BIOFUELS LLC, priority 2013, dated 2018).
# Where “and” joins values, the source holds several entries; their conditions need not be identical. Equal values may be shown once.
# B1: Saccharomyces cerevisiae GPD1 (SEQ ID NO: 195) variant F73A, SEQ ID NO: 197 (Saccharomyces cerevisiae S288C; F73A) (protein)
# chain: MSAAADRLNLTSGHLNAGRKRSSSSVSLKAAEKPFKVTVIGSGNWGTTIAKVVAENCKGYPEVFAPIVQMWVAEEEINGEKLTEIINTRHQNVKYLPGITLPDNLVANPDLIDSVKDVDIIVFNIPHQFLPRICSQLKGHVDSHVRAISCLKGFEVGAKGVQLLSSYITEELGIQCGALSGANIATEVAQEHWSETTVAYHIPKDFRGEGKDVDHKVLKALFHRPYFHVSVIEDVAGISICGALKNVVALGCGFVEGLGWGNNASAAIQRVGLGEIIRFGQMFFPESREETYYQESAGVADLITTCAGGRNVKVARLMATSGKDAWECEKELLNGQSAQGLITCKEVHEWLETCGSVEDFPLFEAVYQIVYNNYPMKNLPDMIEELDLHED
# notes: integrated at the GPD1 locus of yeast isobutanologen PNY2145 (T12 strains N3_1, E3_1); full length 391 aa
# B2: Saccharomyces cerevisiae GPD1 (SEQ ID NO: 195) variant F73G, SEQ ID NO: 196 (Saccharomyces cerevisiae S288C; F73G) (protein)
# chain: MSAAADRLNLTSGHLNAGRKRSSSSVSLKAAEKPFKVTVIGSGNWGTTIAKVVAENCKGYPEVFAPIVQMWVGEEEINGEKLTEIINTRHQNVKYLPGITLPDNLVANPDLIDSVKDVDIIVFNIPHQFLPRICSQLKGHVDSHVRAISCLKGFEVGAKGVQLLSSYITEELGIQCGALSGANIATEVAQEHWSETTVAYHIPKDFRGEGKDVDHKVLKALFHRPYFHVSVIEDVAGISICGALKNVVALGCGFVEGLGWGNNASAAIQRVGLGEIIRFGQMFFPESREETYYQESAGVADLITTCAGGRNVKVARLMATSGKDAWECEKELLNGQSAQGLITCKEVHEWLETCGSVEDFPLFEAVYQIVYNNYPMKNLPDMIEELDLHED
# notes: full length 391 aa
# B3: Saccharomyces cerevisiae GPD1 (SEQ ID NO: 195) variant N44A, SEQ ID NO: 212 (Saccharomyces cerevisiae S288C; N44A) (protein)
# chain: MSAAADRLNLTSGHLNAGRKRSSSSVSLKAAEKPFKVTVIGSGAWGTTIAKVVAENCKGYPEVFAPIVQMWVFEEEINGEKLTEIINTRHQNVKYLPGITLPDNLVANPDLIDSVKDVDIIVFNIPHQFLPRICSQLKGHVDSHVRAISCLKGFEVGAKGVQLLSSYITEELGIQCGALSGANIATEVAQEHWSETTVAYHIPKDFRGEGKDVDHKVLKALFHRPYFHVSVIEDVAGISICGALKNVVALGCGFVEGLGWGNNASAAIQRVGLGEIIRFGQMFFPESREETYYQESAGVADLITTCAGGRNVKVARLMATSGKDAWECEKELLNGQSAQGLITCKEVHEWLETCGSVEDFPLFEAVYQIVYNNYPMKNLPDMIEELDLHED
# notes: full length 391 aa
# B4: Saccharomyces cerevisiae GPD1 (SEQ ID NO: 195) variant N44C, SEQ ID NO: 213 (Saccharomyces cerevisiae S288C; N44C) (protein)
# chain: MSAAADRLNLTSGHLNAGRKRSSSSVSLKAAEKPFKVTVIGSGCWGTTIAKVVAENCKGYPEVFAPIVQMWVFEEEINGEKLTEIINTRHQNVKYLPGITLPDNLVANPDLIDSVKDVDIIVFNIPHQFLPRICSQLKGHVDSHVRAISCLKGFEVGAKGVQLLSSYITEELGIQCGALSGANIATEVAQEHWSETTVAYHIPKDFRGEGKDVDHKVLKALFHRPYFHVSVIEDVAGISICGALKNVVALGCGFVEGLGWGNNASAAIQRVGLGEIIRFGQMFFPESREETYYQESAGVADLITTCAGGRNVKVARLMATSGKDAWECEKELLNGQSAQGLITCKEVHEWLETCGSVEDFPLFEAVYQIVYNNYPMKNLPDMIEELDLHED
# notes: full length 391 aa
# B5: Saccharomyces cerevisiae GPD1 (SEQ ID NO: 195) variant F129A, SEQ ID NO: 201 (Saccharomyces cerevisiae S288C; F129A) (protein)
# chain: MSAAADRLNLTSGHLNAGRKRSSSSVSLKAAEKPFKVTVIGSGNWGTTIAKVVAENCKGYPEVFAPIVQMWVFEEEINGEKLTEIINTRHQNVKYLPGITLPDNLVANPDLIDSVKDVDIIVFNIPHQALPRICSQLKGHVDSHVRAISCLKGFEVGAKGVQLLSSYITEELGIQCGALSGANIATEVAQEHWSETTVAYHIPKDFRGEGKDVDHKVLKALFHRPYFHVSVIEDVAGISICGALKNVVALGCGFVEGLGWGNNASAAIQRVGLGEIIRFGQMFFPESREETYYQESAGVADLITTCAGGRNVKVARLMATSGKDAWECEKELLNGQSAQGLITCKEVHEWLETCGSVEDFPLFEAVYQIVYNNYPMKNLPDMIEELDLHED
# notes: full length 391 aa
# B6: Saccharomyces cerevisiae GPD1 (SEQ ID NO: 195) variant F129G, SEQ ID NO: 200 (Saccharomyces cerevisiae S288C; F129G) (protein)
# chain: MSAAADRLNLTSGHLNAGRKRSSSSVSLKAAEKPFKVTVIGSGNWGTTIAKVVAENCKGYPEVFAPIVQMWVFEEEINGEKLTEIINTRHQNVKYLPGITLPDNLVANPDLIDSVKDVDIIVFNIPHQGLPRICSQLKGHVDSHVRAISCLKGFEVGAKGVQLLSSYITEELGIQCGALSGANIATEVAQEHWSETTVAYHIPKDFRGEGKDVDHKVLKALFHRPYFHVSVIEDVAGISICGALKNVVALGCGFVEGLGWGNNASAAIQRVGLGEIIRFGQMFFPESREETYYQESAGVADLITTCAGGRNVKVARLMATSGKDAWECEKELLNGQSAQGLITCKEVHEWLETCGSVEDFPLFEAVYQIVYNNYPMKNLPDMIEELDLHED
# notes: full length 391 aa
# B7: Saccharomyces cerevisiae GPD1 (SEQ ID NO: 195) variant F129K, SEQ ID NO: 203 (Saccharomyces cerevisiae S288C; F129K) (protein)
# chain: MSAAADRLNLTSGHLNAGRKRSSSSVSLKAAEKPFKVTVIGSGNWGTTIAKVVAENCKGYPEVFAPIVQMWVFEEEINGEKLTEIINTRHQNVKYLPGITLPDNLVANPDLIDSVKDVDIIVFNIPHQKLPRICSQLKGHVDSHVRAISCLKGFEVGAKGVQLLSSYITEELGIQCGALSGANIATEVAQEHWSETTVAYHIPKDFRGEGKDVDHKVLKALFHRPYFHVSVIEDVAGISICGALKNVVALGCGFVEGLGWGNNASAAIQRVGLGEIIRFGQMFFPESREETYYQESAGVADLITTCAGGRNVKVARLMATSGKDAWECEKELLNGQSAQGLITCKEVHEWLETCGSVEDFPLFEAVYQIVYNNYPMKNLPDMIEELDLHED
# notes: full length 391 aa
# Substrate: NC(=O)C1=CN([C@@H]2O[C@H](COP(=O)(O)OP(=O)(O)OC[C@H]3O[C@@H](n4cnc5c(N)ncnc54)[C@H](O)[C@@H]3O)[C@@H](O)[C@H]2O)C=CC1
# Experiment: cells, lysate or membranes named
# Type: biochemical, Saccharomyces cerevisiae
# Details: other: crude cell extract, pH 6.8, 1 mM dihydroxyacetone phosphate, 30.0 °C
# Description: (§1) Mutations were introduced at 4 different amino acid positions, according to Table 7. Mutagenesis was performed using a QuikChange Lightning Kit (Cat. #210519, Agilent Technologies, La Jolla, Calif.), according to manufacturer's directions. Mutagenesis primers were obtained from Sigma-Aldrich Co. LLC, St. Louis, Mo. Reactions were thermocycled in a Gene Amp 9700 (Perkin Elmer Applied Biosystems, Norwalk, Conn.). Escherichia coli TOP10 were transformed with 1 μl of QuikChange reaction product according to manufacturer's directions, and transformants were selected on LB agar plates with 100 μg/mL ampicillin. DNA sequences were obtained for multiple isolates from each transformation in order to identify those with the desired mutations.
# (§2) Glycerol-3-phosphate production was measured by LC/MS.
# The data used in this section are provided in Table 11, and includes measurements of the metabolic products and the in vitro measurements of GPD as described above.
row,Protein,Km [µM]
1,B1,101

# Substrate: NC(=O)C1=CN([C@@H]2O[C@H](COP(=O)(O)OP(=O)(O)OC[C@H]3O[C@@H](n4cnc5c(N)ncnc54)[C@H](O)[C@@H]3O)[C@@H](O)[C@H]2O)C=CC1
# Experiment: cells, lysate or membranes named
# Type: biochemical, Saccharomyces cerevisiae
# Details: other: crude cell extract, pH 6.8, 1 mM dihydroxyacetone phosphate, 30.0 °C
# Remark: another data set of the same source
# Description: as §1, §2
Protein,Km,Vmax
B2,42 µM,9000 µM/min
B3,14 µM,6000 µM/min
B4,5 µM,3000 µM/min
B5,199 µM and 234 µM,33000 µM/min and 14000 µM/min
B6,200 µM,21000 µM/min
B7,136 µM,14000 µM/min
